Test results published in patent US10774068B2, “Composition and methods for inhibiting mammalian sterile 20-like kinase 1” (The Scripps Research Institute, priority 2015, dated 2020).

Sequences of proteins named here, by UniProt entry; tags and fusion partners are left off.
UniProt Q13043, whole entry: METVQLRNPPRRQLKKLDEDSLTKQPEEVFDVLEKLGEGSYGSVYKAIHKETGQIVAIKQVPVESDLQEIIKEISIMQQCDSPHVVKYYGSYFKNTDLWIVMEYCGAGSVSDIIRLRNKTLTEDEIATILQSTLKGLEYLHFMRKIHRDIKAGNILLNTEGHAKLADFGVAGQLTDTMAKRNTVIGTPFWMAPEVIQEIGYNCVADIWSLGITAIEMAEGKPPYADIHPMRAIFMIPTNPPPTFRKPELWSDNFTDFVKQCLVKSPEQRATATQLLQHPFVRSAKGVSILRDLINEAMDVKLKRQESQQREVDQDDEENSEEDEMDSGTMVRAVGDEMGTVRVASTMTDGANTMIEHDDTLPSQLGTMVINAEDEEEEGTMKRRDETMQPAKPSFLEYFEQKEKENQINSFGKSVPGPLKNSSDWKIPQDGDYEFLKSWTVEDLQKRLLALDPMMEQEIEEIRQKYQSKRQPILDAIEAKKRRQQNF

Target: MST1 (Homo sapiens (Human), UniProt Q13043)
Assay: MST1 biochemical LanthaScreen Eu Kinase Binding Assay
Details: read-out: Kinase Binding assay-MST1 IC50

IC50: 100 to 1000 nM
Compound: CCOc1cc2ncc(C#N)c(Nc3ccc(OCCN4CCc5ccccc5C4)c(Cl)c3)c2cc1NC(=O)CCCN(C)C
